# PubChem BioAssay AID445 (National Center for Advancing Translational Sciences (NCATS), 2006)
# This is a selection; strong and weak results do not stand in their true shares. Results filed as inconclusive are left out. The source made the active and inactive calls. The call rests on the fitted dose curve; in most records, active means well fitted curve in the direction sought with a large enough effect in the signal ratio (not every such curve was filed as active); inconclusive means small, poorly fitted or top-dose-only effect, or a change in a side signal; inactive means flat fitted curve, though single readings scatter; the % refers to the signal ratio.
# Experiment: IkB Signaling;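 further: 0% = basal untreated cells and 100% = reference inhibitor full response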
# Settings: ABC-DLBCL IkBa-CBG/CBR dual luciferase ratio (green luciferase fused to IkBa over red control in OCI-Ly3 lymphoma cells), 4 h, scaled: untreated 0%, proteasome inhibitor 100%; at 57.1 µM (top of the series)
# Text: NIH Molecular Libraries Screening Centers Network [MLSCN]
# NIH Chemical Genomics Center [NCGC]
# Nuclear factor kappa-B (NF-kappa-B) plays an important role in normal B cell development and survival. Diffuse large B cell lymphoma (DLBCL) is the most commonly observed type of non-Hodgkin's lymphoma. Gene expression analysis has identified an activated B cell-like subtype of DLBCL (ABC-DLBCL) which expresses known NF-kappa-B target genes. […] However, targets upstream of IKK have been largely unexplored and so nodes upstream of IKK in the NF-kappa-B pathway remain untested due to the lack of chemical probes.
# A cell-sensor assay for I-kappa-B-alpha stabilization was developed with NIH investigator Dr. R. Eric Davis in Dr. Louis M. Staudt's laboratory. […] Following the addition of doxycycline to induce expression of the luciferases, the green luminescence in control cultures rises only slowly because the CBG fusion partner I-kappa-B-alpha is targeted by IKK activity for rapid degradation. In contrast, green luminescence rises rapidly in the presence of proteasome inhibitors or IKK inhibitors. The rise in red luminescence of CBR is not affected by proteasome or IKK inhibitors, and serves as normalization for cell number and nonspecific effects. […]
# Keywords: IKK, I-kappa-B, IkB, IkBa, cytotoxicity, luminescence, MLSMR, MLSCN, NIH Roadmap, qHTS, NCGC
row,Compound,IkBa stabilization activation
1,O=[N+]([O-])C(Cl)(Cl)Cl,inactive: -1.55%
